iPSC survival up = enhancers of single-cell hiPSC survival, primary screen, ATPlite luminescence; 100% = ROCK inhibitor wells, 0% = DMSO; survival enhancement, % at 20 µM; hit rate 0.044% among 360,000; AID 602274, 2012; in the data active = survival enhancement above about 18%;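 note: cells exposed to compounds for 16 hours before the ATP read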
PGC1a acetyl inh = inhibitors of PGC1a acetylation signal, primary screen, cell-based, U2OS, AlphaScreen, inhibitor mode | AlphaScreen anti-acetyl-lysine; with virally co-expressed GCN5 acetyltransferase | inhibition, % at 15.6 µM | hit rate 0.17% among 350,000;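 active = every replicate shows inhibition of at least 40%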;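 note: 0% = neutral control wells and 100% = positive control wells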
Statin myotox sup = suppressors of statin myotoxicity in C2C12 myotubes, primary screen, cell-based, single point, plate reader. rescue of ATP level, % at 7.49 µM. hit rate 0.78% among 330,000. C2C12 myotubes + simvastatin, ATP luminescence, 48 h; scaled: DMSO 0, geranylgeraniol control 100;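 active = mean ATP rescue above about 67%, or every replicate alone reaching that limit, limit read from the data, passing the limit was not always enough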;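 note: myotubes were challenged with 10 µM simvastatin during compound exposure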
FN deposition inh = inhibitors of fibronectin matrix deposition, primary screen, AH1F cells, Alexa488-fibronectin fluorescence, plate reader | hit rate 0.086% among 350,000 | AID 743247, 2014 | inhibition, % at 12.6 µM | AH1F fibroblasts, overnight;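 active = mean inhibition across replicates of 30% or more, regardless of how many single replicates reach that level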;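 note: positive control wells lacked labelled fibronectin entirely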
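Material – AH1F fibroblast monolayer, labelled fibronectin deposition · Reagent – labelled fibronectin 24 nM · Timing – 1 h adhesion, overnight exposure · Measured by – fluorescence at 485 nm excitation, 525 nm emission · Read-out – inhibition of fibronectin deposition signal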
Yeast UUG start = alters start codon recognition fidelity in yeast. S. cerevisiae UUG-firefly luciferase reporter, luminescence/redox ratio. activity score, % at 18.7 µM. 0.13% of 350,000 active. AID 602363;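 active = replicate mean at a twofold rise or more, about +100% in these data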;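 also: firefly luciferase made from a UUG start codon reports start codon fidelity; reporter light over untreated wells divided by growth signal over untreated wells; some hits fall short of that in this replicate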
* hit, by the source's call; x = no result given. In the library only some 0.91% were active in any assay of this set; here they are far more common.

The line under a structure holds: iPSC survival up, PGC1a acetyl inh, Statin myotox sup, FN deposition inh, Yeast UUG start
[1] O=C(Cn1cnc2c(cnn2-c2ccc(Cl)cc2)c1=O)NCC1CCCO1 (stereo unspecified)
  -1.6, 3.7, 84.7*, x, -4.3
[2] CCC(=O)c1cn(CC(=O)NCc2ccco2)c2ccccc12
  -2.8, -1.5, 2.5, x, -15.9
[3] COC(=O)c1cn(CC(=O)NCc2ccco2)c2ccccc12
  4.0, -10.0, -4.4, 31.4*, -2.5
[4] COc1cccc(-c2ccc([C@H]3[C@@H](C#N)N(C(=O)Cc4ccccc4)[C@@H]3CO)cc2)c1
  x, -18.3, 14.1, -4.9, -2.5
[5] CN1C(=O)c2cc(NC(=O)NC3CCCC3)ccc2OC[C@H]2O[C@@H](CC(=O)NCC3CC3)CC[C@@H]21
  x, -7.6, x, 3.4, x
[6] O=C1c2ccccc2C(=Cc2cccnc2)c2ccccc21
  4.6, 9.6, 4.6, -5.2, -15.9
[7] O=C1/C(=C/c2cccnc2)Sc2ccccc21
  1.0, -4.2, 93.0*, x, -25.1
[8] CC(=O)Nc1ccc(/C=C2\Sc3ccccc3C2=O)cc1
  -0.3, 5.9, x, -1.8, x
[9] Cc1ccc(/C=C2\Sc3ccccc3C2=O)s1
  -5.1, 0.4, 87.3*, -4.9, -28.7
[10] Cc1nnc(Nc2ccc(O)cc2)[nH]c1=O
  0.7, 25.0, 106.6*, -1.3, -14.5
[11] Cc1nnc(Nc2ccc(C(=O)O)cc2)[nH]c1=O
  0.3, 1.6, x, -1.0, x
[12] CO[C@H]1CN(C)C(=O)c2ccc(NS(C)(=O)=O)cc2OC[C@H](C)N(C(=O)C2CCC2)C[C@@H]1C
  x, x, 1.7, -8.6, -5.7
[13] Cc1oc(-c2ccc(Cl)cc2)nc1CS(=O)CC(=O)NC1CCCCC1 (stereo unspecified)
  -0.1, x, 21.6, -4.8, 4.8
[14] Cc1oc(-c2ccc(Cl)cc2)nc1CS(=O)CC(=O)NC1CCCC1 (stereo unspecified)
  1.1, -6.4, 98.9*, -10.7, -17.8
[15] Cc1ccc(-c2nc(CS(=O)CC(=O)NC3CCCCC3)c(C)o2)cc1 (stereo unspecified)
  -0.2, -19.1, 104.9*, 13.3, -12.7
[16] O=C(Nc1nc(=O)c2ccccc2s1)c1ccc(Cl)cc1
  -0.3, 0.7, 80.4*, x, -28.9
[17] O=C(Nc1nc(=O)c2ccccc2s1)c1ccc(F)cc1
  -0.7, -29.3, 19.2, x, -11.5
[18] N#Cc1cc(-c2ccccc2)nnc1Sc1ccc(Cl)cc1
  5.8, -5.9, 112.5*, x, -15.1
[19] Cc1ccc(Sc2nc(-c3ccccc3)ccc2C#N)cc1
  0.0, x, -37.3, -0.1, -0.9
[20] CO[C@H]1CN(C)C(=O)c2ccc(NC(=O)NC(C)C)cc2OC[C@H](C)N(C)C[C@@H]1C
  x, 4.6, x, -11.2, x

2 compounds from above with just Statin myotox sup.
| item | SMILES | Statin myotox sup |
| --- | --- | --- |
| 1 | O=C(Cn1cnc2c(cnn2-c2ccc(Cl)cc2)c1=O)NCC1CCCO1 (stereo unspecified) | 84.7* |
| 14 | Cc1oc(-c2ccc(Cl)cc2)nc1CS(=O)CC(=O)NC1CCCC1 (stereo unspecified) | 98.9* |

More results
The line under a structure holds: iPSC survival up, PGC1a acetyl inh, Statin myotox sup, FN deposition inh, Yeast UUG start
[21] O=C(Nc1ccccc1C(=O)NCCCn1ccnc1)c1ccccc1
  -2.1, -24.4, 122.0*, x, -13.9
[22] CCSc1ccccc1C(=O)NCCCn1ccnc1
  -1.0, 94.6*, 0.7, -21.1, -22.7
[23] CSc1ccccc1C(=O)NCCCn1ccnc1
  4.3, 16.4, 1.9, 7.2, -6.8
[24] O=C(COC(=O)C1CC2C=CC1C2)NCc1ccc(F)cc1 (stereo unspecified)
  1.3, x, x, 3.2, -12.0
[25] O=C(COC(=O)C1CC2C=CC1C2)NCc1ccco1 (stereo unspecified)
  4.0, -4.7, 101.3*, x, -4.7
[26] CCn1ncc(Br)c1C(=O)Nc1cc(C(=O)OC)ccc1C(=O)OC
  0.1, -5.6, 122.8*, x, x
[27] CCOc1ccc(C(F)(F)F)cc1NC(C)=O
  0.3, -11.5, 96.1*, x, -10.8
[28] CS(=O)(=O)Nc1ccc2c(c1)[C@H]1C[C@H](CC(=O)NCCc3ccccc3)O[C@@H](CO)[C@H]1O2
  x, -0.6, -3.5, 4.2, x
[29] Brc1ccc(N/N=C(/N=Nc2nn[nH]n2)c2ccccc2)cc1
  -1.4, 97.0*, x, 9.8, x
[30] O=C(O)c1ccc(N=N/C(=N\Nc2ccc(C(=O)O)cc2)c2ccccc2)cc1
  0.6, 3.2, -2.1, 5.7, -13.0
[31] CCOc1ccccc1OCCCCCc1c(C)n[nH]c1C
  1.6, -19.3, 6.1, x, -7.1
[32] Cc1cccc(OCCCCc2c(C)n[nH]c2C)c1C
  0.1, 3.0, 103.5*, x, -15.0
[33] C=CCOc1ccc2c(OC)c3ccoc3nc2c1OC
  -0.6, -1.6, 92.1*, -2.6, 1.6
[34] CO[C@@H](CN(C)Cc1cc(F)ccc1F)[C@H](C)CN(C(=O)Nc1ccc(C(F)(F)F)cc1)[C@@H](C)CO
  x, -5.0, -26.3, -10.6, x
[35] CCNC[C@H]1[C@@H](c2ccccc2)[C@@H](CO)N1C(=O)Cc1ccccn1
  x, -10.6, 14.4, -2.8, 7.0
[36] COCc1nc2ccccc2n1CCCOc1ccccc1
  2.4, -6.2, 127.4*, x, -23.4
[37] CCOCCn1c(COc2ccccc2)nc2ccccc21
  -0.5, -4.6, 122.4*, x, -10.0
[38] COc1ccccc1-c1cn(CC[C@@H]2CC[C@@H](NC(=O)C3CCC3)[C@@H](CO)O2)nn1
  x, -1.7, -1.8, x, 5.1
[39] OC[C@@H]1CN(Cc2ccc(Cl)cc2)C[C@H](n2cnc3c(NCc4ccc(F)cc4)ncnc32)O1
  1.2, x, 0.3, 5.2, 8.5
[40] OC[C@@H]1CN(Cc2ccccc2)C[C@H](n2cnc3c(NCc4ccco4)ncnc32)O1
  2.1, 101.1*, 0.1, -9.9, -9.7
[41] COc1ccc(CN2C[C@@H](CO)O[C@@H](n3cnc4c(NCc5ccc(F)cc5)ncnc43)C2)cc1
  11.4, 8.0, 81.3*, 21.1, -15.0
[42] COc1cc(CNc2ncnc3c2ncn3[C@H]2CN(Cc3cccc4ccccc34)C[C@@H](CO)O2)cc(OC)c1OC
  -1.8, -11.6, 165.9*, 7.5, -3.7
[43] CCC(=O)N1CC2(C1)[C@@H](c1ccccc1)[C@@H](CO)N2Cc1ccccc1F
  x, -8.6, x, x, x
[44] COc1ccc(-c2csc(C(NC(C)=O)c3cccc(F)c3)n2)cc1 (stereo unspecified)
  0.7, 6.1, 76.1*, -8.2, -10.2
[45] COCCn1nnnc1CN(CCc1ccc(OC)c(OC)c1)Cc1cc2ccc(C)cc2[nH]c1=O
  -1.6, -5.6, 103.0*, x, x
[46] COc1ccc(CN(C)C[C@H]2Oc3ccc(NS(=O)(=O)c4ccc(F)cc4)cc3C(=O)N([C@H](C)CO)C[C@H]2C)cc1
  x, -5.5, 14.5, x, -5.0
[47] O=C(CNC(=O)c1ccccc1)OC(C(=O)Nc1cc(C(F)(F)F)ccc1Cl)c1ccccc1 (stereo unspecified)
  18.6*, -5.5, 4.4, x, -3.7
[48] Cc1ccc(C2=[N+]([O-])C3(CCCCC/C3=N\O)N(O)C2(C)C)o1 (stereo unspecified)
  -1.2, -4.7, x, x, -17.3
[49] CC1(C)C(c2ccc(Cl)cc2)=[N+]([O-])C2(CCCC/C2=N\O)N1O (stereo unspecified)
  3.6, -14.9, 116.3*, x, -24.3
[50] CC(C)[C@H](C)NC(=O)N(C)C[C@@H]1OCc2ccccc2-c2ccccc2C(=O)N([C@@H](C)CO)C[C@@H]1C
  x, -25.8, x, 0.6, x
[51] C[C@@H]1CN([C@@H](C)CO)C(=O)c2cc(C3=CCCCC3)cnc2O[C@@H]1CN(C)C(=O)Cc1cccnc1
  x, 5.0, -21.0, -37.4, -9.8

Random excerpt: three records from the list, in no set order.
The line under a structure holds: iPSC survival up, PGC1a acetyl inh, Statin myotox sup, FN deposition inh, Yeast UUG start
[20] CO[C@H]1CN(C)C(=O)c2ccc(NC(=O)NC(C)C)cc2OC[C@H](C)N(C)C[C@@H]1C
  x, 4.6, x, -11.2, x
[19] Cc1ccc(Sc2nc(-c3ccccc3)ccc2C#N)cc1
  0.0, x, -37.3, -0.1, -0.9
[30] O=C(O)c1ccc(N=N/C(=N\Nc2ccc(C(=O)O)cc2)c2ccccc2)cc1
  0.6, 3.2, -2.1, 5.7, -13.0

Compound activity as filed in PubChem.
